{
  "sequences": {"note": "Amino acid sequences for entries named in this document (tags omitted). Residues count along the entry.", "UniProt O43347, 20-107 limits assumed": "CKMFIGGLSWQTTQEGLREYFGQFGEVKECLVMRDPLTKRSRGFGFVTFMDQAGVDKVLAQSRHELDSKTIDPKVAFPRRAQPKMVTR"},
  "source": "paper PMC7463734",
  "about": "“Identification and Validation of an Aspergillus nidulans Secondary Metabolite Derivative as an Inhibitor of the Musashi-RNA Interaction” (Cancers, 2020)",
  "target": "RBD1 of MSI1 (Homo sapiens, UniProt O43347)",
  "assay": "FP dose-response (competition) disrupting RBD1-Numb^FITC complex",
  "format": "binding",
  "conditions": "for IC50: FP dose-response, RBD1 of MSI1; for Ki: calculated based on the Kd and the dose-response curves",
  "method": "To further examine the initial hits, we tested compounds with similar scaffolds shown in Figure 3 and Figure S1 in an FP dose-response assay. […] We thus focused our further validation studies on Aza-9.\nFigure 4 FP dose-response validation compounds binding to RBD1 of MSI1. Ki values were calculated based on the Kd and the dose-response curves. TEXT PRINTED IN THE PICTURE: Aza-7: IC50 [μM]: 7.1; Ki [μM]: 3.0 | Aza-8: IC50 [μM]: 4.0; Ki [μM]: 1.7 | Aza-9: IC50 [μM]: 2.8; Ki [μM]: 1.2 | Aza-10: IC50 [μM]: 7.5; Ki [μM]: 3.2 | Aza-11: IC50 [μM]: 3.9; Ki [μM]: 1.7 | Aza-12: IC50 [μM]: 6.3; Ki [μM]: 2.7 | Aza-13: IC50 [μM]: 4.5; Ki [μM]: 1.9 | Aza-14: IC50 [μM]: 11.6; Ki [μM]: 5.0 | Aza-15: IC50 [μM]: >20 | Aza-16: IC50 [μM]: 6.8; Ki [μM]: 2.9 | Aza-17: IC50 [μM]: >20\npET21a-GB1-RBD1 (MSI1-RBD1) plasmids encoding the Homo sapiens RNA binding domain 1 (RBD1, residues 20-107) of MSI1 were constructed with Mus musculus cDNAs under T7 promoter. MSI1-RBD1 proteins were expressed in Escherichia coli and purified, as previously described. Protein concentrations were determined using the Bradford assay (Bio-Rad, Hercules, CA, USA). Purification of MSI2-RBD1 protein was carried out according to the previous publication.\nFP, SPR and NMR assays were carried out according to the previous publication. For computer modeling of Aza-9 to MSI1/2, the AutoDock4.2.6 program was used for predicting the binding mode. The NMR structure of MSI1-RBD1 in complex with RNA (PDB: 2RS2) and the NMR structure of apo MSI2-RBD1 (PDB: 6C8U) were used as the receptor structure. The MSI1 RBD1–RNA interface and corresponding site in MSI2-RBD1 was used as the starting point for the docking calculations. The initial three-dimensional model of the Aza-9 compound was generated using the BABEL program and was used as starting coordinates to define the ligand structure. For docking, a grid box of size 40 × 44 × 56 A with 0.375 A spacing was centered at residue F23 in MSI1-RBD1 (or F24 in MSI2-RBD1). A total of 200 docking runs were carried out using the Lamarckian genetic algorithm. The docked conformation with the lowest energy was selected as the final conformation.",
  "data": [
    {"smiles": "CCOC(=O)C=C1C2=COC(/C=C/C(C)=C/[C@@H](C)CC)=CC2=C(I)C(=O)C1(C)O", "note": "(some centres unmarked)", "values": [
      {"measurement": "IC50", "result": "> 20", "unit": "µM"}
    ]},
    {"smiles": "CC[C@H](C)/C=C(C)/C=C/C1=CC2=C(I)C(=O)C(C)(O)C(=O)C2=CO1", "note": "(some centres unmarked)", "values": [
      {"measurement": "IC50", "result": 11.6, "unit": "µM"},
      {"measurement": "Ki", "result": 5, "unit": "µM"}
    ]},
    {"smiles": "CCOC(=O)C=C1C2=COC(/C=C/C(C)=C/[C@@H](C)CC)=CC2=CC(=O)C1(C)O", "note": "(some centres unmarked)", "values": [
      {"measurement": "IC50", "result": "> 20", "unit": "µM"}
    ]},
    {"smiles": "CC[C@H](C)/C=C(C)/C=C/C1=CC2=C(I)C(=O)C(C)(OC(C)=O)C(=O)C2=CO1", "note": "(some centres unmarked)", "values": [
      {"measurement": "IC50", "result": 7.5, "unit": "µM"},
      {"measurement": "Ki", "result": 3.2, "unit": "µM"}
    ]},
    {"smiles": "CCOC(=O)C=C1C2=COC(/C=C/C(C)=C/[C@@H](C)CC)=CC2=C(Br)C(=O)C1(C)O", "note": "(some centres unmarked)", "values": [
      {"measurement": "IC50", "result": 6.8, "unit": "µM"},
      {"measurement": "Ki", "result": 2.9, "unit": "µM"}
    ]}
  ]
}
